Sequences of proteins named here, by UniProt entry; tags and fusion partners are left off.
UniProt P53350, whole entry: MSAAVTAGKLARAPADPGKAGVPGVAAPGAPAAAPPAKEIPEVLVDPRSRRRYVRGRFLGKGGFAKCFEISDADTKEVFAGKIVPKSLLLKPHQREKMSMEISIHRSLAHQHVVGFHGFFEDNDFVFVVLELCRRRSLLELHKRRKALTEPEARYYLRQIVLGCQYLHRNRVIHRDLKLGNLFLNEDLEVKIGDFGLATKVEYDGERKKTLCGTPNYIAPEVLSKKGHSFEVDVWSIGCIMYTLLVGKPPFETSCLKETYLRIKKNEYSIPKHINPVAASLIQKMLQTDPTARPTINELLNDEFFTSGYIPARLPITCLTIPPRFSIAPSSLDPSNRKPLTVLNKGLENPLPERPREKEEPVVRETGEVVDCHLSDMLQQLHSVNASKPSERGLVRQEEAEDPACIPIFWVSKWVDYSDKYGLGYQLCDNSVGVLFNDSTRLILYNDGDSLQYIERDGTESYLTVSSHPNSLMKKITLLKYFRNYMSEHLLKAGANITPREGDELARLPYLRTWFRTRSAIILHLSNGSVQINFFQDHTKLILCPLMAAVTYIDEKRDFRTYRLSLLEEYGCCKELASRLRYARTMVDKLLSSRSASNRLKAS

Only a part is listed here, and it is no random draw. Some of these compounds have results that are not shown, active ones among them. Activity calls are given as the source filed them. Cut-off read from the data, not from the text of the source: active = inhibition above about 34% (passing the limit was not always enough); inactive = the rest.
Each compound was assayed against Serine/threonine-protein kinase PLK1 (Homo sapiens) (UniProt P53350) (assay: blockers of phosphopeptide binding to Plk1 PBD – biochemical, fluorescence polarization, primary screen (AID 693)). Details: hits give high values,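 tested at about 20 µM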.
With CN(C)c1cccc(C(=O)NCC2(N(C)C)CCCCC2)c1 the inhibition was inactive: -7.01%. For O=C(OC1CN2CCC1CC2)C(CO)(c1ccccc1)c1ccccc1 (stereo not drawn), the inhibition was inactive: 21.1%. For CC(C)N1C(=O)CC2(CCN(CCOC(=O)C(O)(c3ccccc3)c3ccccc3)CC2)C1=O, the inhibition was inactive: -5.18%.

Reference: PubChem BioAssay AID693 (University of Pittsburgh Molecular Library Screening Center, 2007)
